Reference: patent US20120196899A1, “METHODS AND PRODUCTS FOR TREATING INFLAMMATION” (Rock Creek Pharmaceuticals, Inc., priority 2010, published 2012)
Where two headings read alike, the source gives them in different places.

Amino acid sequences for entries named in this document (tags omitted). Residues count along the entry.
UniProt P30926, 22-498: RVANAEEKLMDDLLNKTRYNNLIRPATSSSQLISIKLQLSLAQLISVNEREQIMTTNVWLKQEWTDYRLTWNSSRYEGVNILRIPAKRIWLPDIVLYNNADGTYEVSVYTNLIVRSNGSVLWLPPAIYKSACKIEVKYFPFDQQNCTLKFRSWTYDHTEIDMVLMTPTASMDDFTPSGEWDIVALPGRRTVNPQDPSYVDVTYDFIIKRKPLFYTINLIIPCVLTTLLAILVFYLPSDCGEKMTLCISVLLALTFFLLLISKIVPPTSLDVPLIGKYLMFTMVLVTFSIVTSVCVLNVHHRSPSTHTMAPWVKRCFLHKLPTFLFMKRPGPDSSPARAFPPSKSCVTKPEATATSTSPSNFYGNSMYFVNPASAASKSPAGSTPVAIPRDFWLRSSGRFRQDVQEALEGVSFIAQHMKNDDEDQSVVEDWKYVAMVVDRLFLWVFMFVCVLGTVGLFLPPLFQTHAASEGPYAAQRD
UniProt P32297, 32-505: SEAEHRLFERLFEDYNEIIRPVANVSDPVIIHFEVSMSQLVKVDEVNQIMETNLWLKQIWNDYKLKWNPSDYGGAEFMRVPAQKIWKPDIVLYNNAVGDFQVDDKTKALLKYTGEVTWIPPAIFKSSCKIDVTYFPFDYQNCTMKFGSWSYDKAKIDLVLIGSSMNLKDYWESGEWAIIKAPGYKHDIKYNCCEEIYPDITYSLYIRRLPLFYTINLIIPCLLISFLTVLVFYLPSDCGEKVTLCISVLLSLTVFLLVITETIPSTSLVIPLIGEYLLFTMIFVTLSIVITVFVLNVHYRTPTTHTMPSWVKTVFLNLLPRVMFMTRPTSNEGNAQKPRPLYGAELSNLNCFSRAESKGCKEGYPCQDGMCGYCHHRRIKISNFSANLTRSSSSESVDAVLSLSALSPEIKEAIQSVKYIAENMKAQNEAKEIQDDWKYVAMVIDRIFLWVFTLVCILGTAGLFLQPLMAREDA
UniProt P36544, 23-502: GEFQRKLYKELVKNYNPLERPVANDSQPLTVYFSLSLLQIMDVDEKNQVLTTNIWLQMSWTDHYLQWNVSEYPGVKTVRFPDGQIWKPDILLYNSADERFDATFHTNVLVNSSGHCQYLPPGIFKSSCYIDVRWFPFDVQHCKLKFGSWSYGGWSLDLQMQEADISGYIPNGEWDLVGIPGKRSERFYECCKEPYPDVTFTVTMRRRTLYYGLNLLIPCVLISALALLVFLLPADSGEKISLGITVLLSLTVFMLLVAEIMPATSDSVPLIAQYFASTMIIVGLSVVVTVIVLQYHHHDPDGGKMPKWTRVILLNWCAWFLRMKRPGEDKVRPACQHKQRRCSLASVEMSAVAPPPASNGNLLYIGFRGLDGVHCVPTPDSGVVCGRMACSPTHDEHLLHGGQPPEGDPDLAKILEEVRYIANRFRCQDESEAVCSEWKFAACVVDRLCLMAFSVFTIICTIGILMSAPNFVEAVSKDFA
UniProt P17787, 26-502: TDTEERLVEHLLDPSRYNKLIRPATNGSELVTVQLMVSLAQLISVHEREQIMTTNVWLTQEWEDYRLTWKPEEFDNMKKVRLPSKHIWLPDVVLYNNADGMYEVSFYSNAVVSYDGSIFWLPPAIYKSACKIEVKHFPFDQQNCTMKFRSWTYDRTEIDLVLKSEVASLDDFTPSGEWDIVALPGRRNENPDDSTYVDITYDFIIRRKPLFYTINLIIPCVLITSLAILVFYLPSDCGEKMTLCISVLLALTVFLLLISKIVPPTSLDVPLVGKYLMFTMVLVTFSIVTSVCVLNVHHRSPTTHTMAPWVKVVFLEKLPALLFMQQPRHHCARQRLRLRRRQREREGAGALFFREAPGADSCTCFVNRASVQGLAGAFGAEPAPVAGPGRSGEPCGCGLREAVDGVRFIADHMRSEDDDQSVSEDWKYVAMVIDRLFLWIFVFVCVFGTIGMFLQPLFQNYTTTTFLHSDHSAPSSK
UniProt P43681, 29-627: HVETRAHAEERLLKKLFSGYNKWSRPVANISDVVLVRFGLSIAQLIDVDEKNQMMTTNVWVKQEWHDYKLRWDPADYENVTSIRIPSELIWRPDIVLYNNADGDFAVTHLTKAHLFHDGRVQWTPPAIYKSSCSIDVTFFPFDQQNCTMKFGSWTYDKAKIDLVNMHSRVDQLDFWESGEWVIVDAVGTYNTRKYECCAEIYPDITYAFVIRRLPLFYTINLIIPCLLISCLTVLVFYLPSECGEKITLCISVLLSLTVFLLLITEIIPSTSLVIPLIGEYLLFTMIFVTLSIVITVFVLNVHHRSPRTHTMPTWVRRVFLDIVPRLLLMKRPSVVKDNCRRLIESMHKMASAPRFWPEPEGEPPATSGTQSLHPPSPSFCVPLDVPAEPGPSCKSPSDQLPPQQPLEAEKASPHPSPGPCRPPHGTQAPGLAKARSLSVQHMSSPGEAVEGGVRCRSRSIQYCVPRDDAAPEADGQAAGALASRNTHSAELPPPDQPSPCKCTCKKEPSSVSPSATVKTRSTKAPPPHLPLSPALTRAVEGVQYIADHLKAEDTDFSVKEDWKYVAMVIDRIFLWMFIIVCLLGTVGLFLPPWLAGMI

How the values were obtained:
[1] = target: nAChR α3/β4 (Homo sapiens, UniProt P30926+P32297); assay: nAChR α3/β4 channel agonist assay (FLIPR, Fluo-8 calcium); conditions: 30 μM Ach = 100%, HBPS = 0%
[2] = target: T1, nAChR α7 (Homo sapiens, UniProt P36544); assay: nAChR α7 channel agonist assay (FLIPR, with PNU-120596); format: cell-based; conditions: in presence of PNU-120596, 30 μM Ach + 10 μM PNU-120596 = 100%, HBPS = 0%
T1 construct: host or cells: CHO cells
Experimental: Therefore, the assay of agonist activity for either Ach or for the test articles was conducted in the presence of the positive allosteric modulator.

[3] = target: T1, nAChR α7; assay: nAChR α7 positive allosteric modulator assay (FLIPR); format: cell-based; conditions: with 30 μM Ach (= 0%), 30 μM Ach + 10 μM PNU-120596 = 100%
Text: Neither test article potentiated the activity of the nAChR α7 receptor.

[4] = target: T1, nAChR α7; format: cell-based; conditions: with 300 μM Ach + 10 μM PNU-120596, 10 μM MLA = full inhibition
[5] = target: T2, nAChR α4/β2 (Homo sapiens, UniProt P17787+P43681); assay: nAChR α4/β2 channel agonist assay (FLIPR membrane potential); format: cell-based; conditions: 30 μM Ach = 100%, HBPS = 0%
T2 construct: host or cells: HEK293 cells, transient transfection

[6] = Coagulation parameters (aPTT, PT), day 15; format: in vivo, Sprague-Dawley rats; conditions: female; 0.75 mg/kg; group mean
Text: On day 15, urine was collected on all surviving animals for urinalysis. The animals were euthanized and bled via cardiac puncture. Blood was collected for hematology, clinical chemistry, and coagulation analysis. Tissues were collected, weighed, and stored in 10% neutral-buffered formalin for possible future analysis.
Individual values for the coagulation parameters activated partial thromboplastin (aPTT) and prothrombin times (PT) for each animal are listed in Table 34 (normal ranges, Table 30). These are summarized in terms of descriptive statistics in Table 25.

For `CN1CCC[C@H]1c1cccnc1` (single isomer, unassigned) [Nicotine (—) isomer], the “Normalized % Activation” value ([1]; test conc 0.3 μM) was 0.94%, the “Normalized % Activation” value ([1]; test conc 1 μM) was −1.28% and the “Normalized % Activation” value ([1]; test conc 3 μM) was 1.11%. The “Normalized % Activation” value ([1]; test conc 10 μM) was 38.17%, the “Normalized % Activation” value ([1]; test conc 30 μM) was 122.59% and the “Normalized % Activation” value ([1]; test conc 100 μM) was 201.50%. For the same compound, the “Normalized % Activation” value ([1]; test conc 300 μM) was 264.77%, the “Normalized % Activation” value ([1]; test conc 1000 μM) was 208.23% and the “Normalized % Activation” value ([2]; test conc 0.3 μM) was −1.03%. The “Normalized % Activation” value ([2]; test conc 1 μM) was 0.15%, the “Normalized % Activation” value ([2]; test conc 3 μM) was 0.72% and the “Normalized % Activation” value ([2]; test conc 10 μM) was 2.44%. For the same compound, the “Normalized % Activation” value ([2]; test conc 30 μM) was 5.19%, the “Normalized % Activation” value ([2]; test conc 100 μM) was 11.60% and the “Normalized % Activation” value ([2]; test conc 300 μM) was 27.98%. For the same compound, the “Normalized % Activation” value ([2]; test conc 1000 μM) was 48.47%, the “Normalized % Potentiation” value ([3]; test conc 0.3 μM) was −0.95% and the “Normalized % Potentiation” value ([3]; test conc 1 μM) was −1.03%. For the same compound, the “Normalized % Potentiation” value ([3]; test conc 3 μM) was −0.81%, the “Normalized % Potentiation” value ([3]; test conc 10 μM) was −0.61% and the “Normalized % Potentiation” value ([3]; test conc 30 μM) was −0.47%. For the same compound, the “Normalized % Potentiation” value ([3]; test conc 100 μM) was −0.46%, the “Normalized % Potentiation” value ([3]; test conc 300 μM) was −0.34% and the “Normalized % Potentiation” value ([3]; test conc 1000 μM) was −0.51%. The “Normalized % Inhibition” value ([4]; test conc 0.3 μM) was 2.78%, the “Normalized % Inhibition” value ([4]; test conc 1 μM) was 11.83% and the “Normalized % Inhibition” value ([4]; test conc 3 μM) was 41.24%. For the same compound, the “Normalized % Inhibition” value ([4]; test conc 10 μM) was 32.54%, the “Normalized % Inhibition” value ([4]; test conc 30 μM) was 39.20% and the “Normalized % Inhibition” value ([4]; test conc 100 μM) was 18.65%. For the same compound, the “Normalized % Inhibition” value ([4]; test conc 300 μM) was 14.10%, the “Normalized % Inhibition” value ([4]; test conc 1000 μM) was −37.01% and the “Normalized % Activation” value ([5]; test conc 0.3 μM) was 16.27%. For the same compound, the “Normalized % Activation” value ([5]; test conc 1 μM) was 34.05%, the “Normalized % Activation” value ([5]; test conc 3 μM) was 61.88% and the “Normalized % Activation” value ([5]; test conc 10 μM) was 74.31%. For the same compound, the “Normalized % Activation” value ([5]; test conc 30 μM) was 75.53%, the “Normalized % Activation” value ([5]; test conc 100 μM) was 71.02% and the “Normalized % Activation” value ([5]; test conc 300 μM) was 58.23%. The “Normalized % Activation” value ([5]; test conc 1000 μM) was 57.05%.

For `CN1CCCC1c1cccnc1.O=C(O)C(O)C(O)C(=O)O` (single isomer, unassigned; (-)) [Nicotine, (−) Nicotine hydrogen tartrate], the “P[…]” value [6] was 14.1 s.
